Laboratory results as given in patent US10278957B2, “Opioid agonist peptides and uses thereof” (Protagonist Therapeutics, Inc., priority 2017, dated 2019).

Chains of the proteins cited; added tags and fusions are not shown.
UniProt P35372, whole entry: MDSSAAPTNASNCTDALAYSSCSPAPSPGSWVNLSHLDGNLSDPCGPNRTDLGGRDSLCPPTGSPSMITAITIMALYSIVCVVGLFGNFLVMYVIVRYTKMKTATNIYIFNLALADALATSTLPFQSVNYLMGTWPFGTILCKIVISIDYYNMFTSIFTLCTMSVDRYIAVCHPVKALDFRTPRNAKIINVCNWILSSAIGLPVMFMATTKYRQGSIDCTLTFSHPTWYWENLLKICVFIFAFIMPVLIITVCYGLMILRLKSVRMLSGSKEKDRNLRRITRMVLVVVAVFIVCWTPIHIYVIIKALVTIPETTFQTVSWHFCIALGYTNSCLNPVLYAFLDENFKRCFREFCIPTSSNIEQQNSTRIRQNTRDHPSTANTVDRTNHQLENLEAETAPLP

Experiments:
[1] = biological target: μ-opioid receptor (MOR) (Homo sapiens, UniProt P35372); test: MOR agonist cAMP assay (HitHunter cAMP, forskolin-stimulated); assay type: cell-based; details: read-out: MOR EC50; MOR cAMP agonist activity
[2] = biological target: δ-opioid receptor (DOR) (Homo sapiens, UniProt P41143); test: DOR agonist cAMP assay (HitHunter cAMP, forskolin-stimulated); details: read-out: DOR EC50; DOR cAMP agonist activity

In the case of `C[C@@H](NC(=O)[C@@H]1Cc2ccc(O)cc2CN1)C(=O)NCC(=O)N[C@H](CC(=O)N(C)CC(N)=O)Cc1ccccc1`, the EC50 [1] is reported as over 0.2 µM and the EC50 [2] is reported as 0.01 to 0.05 µM.
